By UniProt entry, the sequences of proteins in these tests, tags left out. Residues count along the entry.
UniProt Q15116, 25-167 limits assumed: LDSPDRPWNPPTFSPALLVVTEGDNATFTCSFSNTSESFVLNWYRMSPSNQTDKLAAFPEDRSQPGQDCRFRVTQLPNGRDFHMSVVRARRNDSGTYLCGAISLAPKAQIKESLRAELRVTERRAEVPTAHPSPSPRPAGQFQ

In US20210324028A1 (Pfizer, published 2021):

Target: T1, human PD-1 (human, UniProt Q15116 25-167, limits assumed)
T1 construct: also called hPD-1
Assay: SPR

B1: xhPD1-hIL15 NQ mutant (other)
heavy 1: not shown
heavy 2: not shown
light: DIQMTQSPSSLSASVGDRVTITCKSSQSLWDSGNQKNFLTWYQQKPGKAPKLLIYWTSYRESGVPSRFSGSGSGTDFTLTISSLQPEDFATYYCQNDYFYPLTFGGGTKVEIKRTVAAPSVFIFPPSDEQLKSGTASVVCLLNNFYPREAKVQWKVDNALQSGNSQESVTEQDSKDSTYSLSSTLTLSKADYEKHKVYACEVTHQGLSSPVTKSFNRGEC
B1 was tested. Which Kd did it give?
Its Kd is 3.44 nM.

And the koff?
The koff was 0.000596 s⁻¹.

What about the kon of the same binder?
Its kon is 173000 M⁻¹ s⁻¹.

What about the t1/2 of the same binder?
The t1/2 was 19.4 min.
